For the data set, the target named is A. ficuum phytase (EC 3.1.3.8) (Aspergillus niger, UniProt P34752). The note with it: phytase: protease ratio of 1:20.

By UniProt entry, the sequences of proteins in these tests, tags left out. Residues count along the entry.
UniProt P34752, 24-467: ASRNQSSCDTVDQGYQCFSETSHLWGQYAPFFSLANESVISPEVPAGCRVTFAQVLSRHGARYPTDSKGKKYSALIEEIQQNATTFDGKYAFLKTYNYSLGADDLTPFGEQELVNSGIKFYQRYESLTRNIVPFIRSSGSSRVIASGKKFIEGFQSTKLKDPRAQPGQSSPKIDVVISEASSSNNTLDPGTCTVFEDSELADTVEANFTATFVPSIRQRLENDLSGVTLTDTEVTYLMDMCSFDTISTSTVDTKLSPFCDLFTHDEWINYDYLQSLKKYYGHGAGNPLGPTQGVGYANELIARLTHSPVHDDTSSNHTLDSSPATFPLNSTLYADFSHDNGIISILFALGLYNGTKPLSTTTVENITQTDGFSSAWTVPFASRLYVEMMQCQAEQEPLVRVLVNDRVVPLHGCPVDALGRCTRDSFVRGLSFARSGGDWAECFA

Regarding pepsin, the “phytase activity after exposure to protease” value was “unaffected”.

Values taken from patent US11549124B2 (priority 2017, dated 2023).
